Source: patent publication US8663643B2, “Combinations of an anti-HER2 antibody-drug conjugate and chemotherapeutic agents, and methods of use” (Genentech, Inc., priority 2008, dated 2014)

Columns and labels:
[1] = 3.6 mg/kg every 3 weeks

With T-DM1 the “maximum tolerated dose (MTD)” value (IV infusion every 3 weeks) was 3.6 mg/kg, the “DLT (Dose-Limiting Toxicity): patients with Grade 4 thrombocytopenia” value (treated at 4.8 mg/kg) was 2 of 3 and the “patients requiring dose reduction” value [1] was 3 out of 112.
